Assay results reported in patent US9532990B2 (Zhejiang DTRM Biopharma Co. Ltd., priority 2014, dated 2017).

By UniProt entry, the sequences of proteins in these tests, tags left out. Where a name states a change or a piece, a line headed by the entry shows the natural chain unless it says otherwise.
UniProt Q06187: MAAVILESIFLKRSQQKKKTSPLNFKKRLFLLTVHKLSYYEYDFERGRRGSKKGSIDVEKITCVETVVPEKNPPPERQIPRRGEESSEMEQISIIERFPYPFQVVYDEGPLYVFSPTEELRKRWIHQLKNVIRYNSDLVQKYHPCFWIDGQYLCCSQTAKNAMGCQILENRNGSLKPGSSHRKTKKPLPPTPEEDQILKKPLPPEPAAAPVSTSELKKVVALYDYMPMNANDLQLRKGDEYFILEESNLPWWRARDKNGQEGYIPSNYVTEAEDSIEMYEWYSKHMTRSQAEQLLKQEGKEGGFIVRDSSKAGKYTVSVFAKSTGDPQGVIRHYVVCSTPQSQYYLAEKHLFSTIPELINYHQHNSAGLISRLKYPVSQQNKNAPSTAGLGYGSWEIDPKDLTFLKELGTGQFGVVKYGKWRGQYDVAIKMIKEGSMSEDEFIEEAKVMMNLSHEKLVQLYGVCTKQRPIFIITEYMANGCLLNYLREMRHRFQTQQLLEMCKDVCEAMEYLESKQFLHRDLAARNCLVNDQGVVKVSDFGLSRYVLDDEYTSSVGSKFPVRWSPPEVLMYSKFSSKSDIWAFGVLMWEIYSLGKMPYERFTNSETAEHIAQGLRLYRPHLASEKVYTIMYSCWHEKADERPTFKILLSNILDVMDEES

Target: BTK wild type (Homo sapiens (Human), UniProt Q06187)
Test: Inhibition assay of BTK kinase activity (HTRF)
Format: biochemical

IC50 [nM] | Structure (SMILES)
3 | C=CC(=O)N1CCC(n2nc(-c3ccc(Oc4c(F)c(F)cc(F)c4F)cc3F)c3c(N)ncnc32)C1 (stereo not drawn) [Compound 23, 1-(3-(4-amino-3-(2-fluoro-4-(2,3,5,6-tetrafluorophenoxy)phenyl)-1H-pyrazolo[3,4-d]pyrimidin-1-yl)pyrrolidin-1-yl)prop-2-en-1-one]
0.5 | C=CC(=O)N1CC[C@@H](n2nc(-c3ccc(Oc4c(F)c(F)cc(F)c4F)cc3F)c3c(N)ncnc32)C1 [Compound 45, 1-((R)-3-(4-amino-3-(2-fluoro-4-(2,3,5,6-tetrafluorophenoxy)phenyl)-1H-pyrazolo[3,4-d]pyrimidin-1-yl)pyrrolidin-1-yl)prop-2-en-1-one]

Structure (SMILES) | IC50 [nM]
C=CC(=O)N1CC[C@@H](n2nc(-c3ccc(C(=O)c4cccc(F)c4)cc3F)c3c(N)ncnc32)C1 [Compound 73, 1-((R)-3-(4-amino-3-(2-fluoro-4-(3-fluorobenzoyl)phenyl)-1H-pyrazolo[3,4-d]pyrimidin-1-yl)pyrrolidin-1-yl)prop-2-en-1-one] | 6
